Converted amounts (≈) assume the structure as drawn.
Assays:
[1] = Aqueous solubility of the compound at 20 degC by shake flask method; settings: buffer
[2] = Half life in phosphate buffer at pH 7.4
Mus musculus [3] = experiment: Antidotal efficacy in ND-4 Swiss-Webster mouse sublethal cyanide model assessed as reduction in recovery time at 0.73 mol/kg, im administered 10 mins post cyanide challenge (reference value: 68.6 +/- 1.3 mins )
[4] = Stability in D2O/deuterated phosphate buffer at pH 1.4 over 22 hrs; settings: pH 1.4, 22 h
Mus musculus [5] = experiment: Antidotal efficacy in ND-4 Swiss-Webster mouse sublethal cyanide model assessed as reduction in recovery time at 0.73 mol/kg, im administered 5 mins post cyanide challenge (reference value: 68.3 +/- 3.2 mins )
Mus musculus [6] = experiment: Antidotal efficacy in ND-4 Swiss-Webster mouse sublethal cyanide model assessed as reduction in recovery time at 0.73 mol/kg, im administered 40 mins post cyanide challenge (reference value: 69.0 +/- 2.1 mins )
Mus musculus [7] = experiment: Antidotal efficacy in ND-4 Swiss-Webster mouse sublethal cyanide model assessed as reduction in recovery time at 0.73 mol/kg, im administered 30 mins post cyanide challenge (reference value: 68.0 +/- 2.0 mins )

Row | Compound | solubility [1] | t1/2 [2] | Time (Mus musculus [3]) | Stability [4] | Time (Mus musculus [5]) | Time (Mus musculus [6]) | Time (Mus musculus [7])
1 | NC(CO)(CO)CO.NC(CO)(CO)CO.O=C(O)C1(O)CSC(O)(C(=O)O)CS1 (stereo not given) | 480 mM |  |  |  |  |  | 
2 | N[C@H]1C(O)O[C@H](CO)[C@@H](O)[C@@H]1O.N[C@H]1C(O)O[C@H](CO)[C@@H](O)[C@@H]1O.O=C(O)C1(O)CSC(O)(C(=O)O)CS1 (stereo not given) | 490 mM |  |  |  |  |  | 
3 | O=C(O)C1(O)CSC(O)(C(=O)O)CS1 (stereo not given) | 190 mM (≈ 45.6 mg/mL) |  |  |  |  |  | 
4 | O=C([O-])C1(O)CSC(O)(C(=O)[O-])CS1.[Na+].[Na+] (stereo not given) | 350 mM | 2 h | 31 min | Stable | 19.7 min | 58.7 min | 49 min

From ChEMBL document CHEMBL2311363, “Cyanide antidotes for mass casualties: water-soluble salts of the dithiane (sulfanegen) from 3-mercaptopyruvate for intramuscular administration” (2013)
